Experimental data from PMC10916402, “Meropenem-ANT3310, a unique β-lactam-β-lactamase inhibitor combination with expanded antibacterial spectrum against Gram-negative pathogens including carbapenem-resistant Acinetobacter baumannii” (Antimicrobial Agents and Chemotherapy, 2024).

Amino acid sequences for entries named in this document (tags omitted). Residues count along the entry.
UniProt Q9F663, 25-293 limits assumed: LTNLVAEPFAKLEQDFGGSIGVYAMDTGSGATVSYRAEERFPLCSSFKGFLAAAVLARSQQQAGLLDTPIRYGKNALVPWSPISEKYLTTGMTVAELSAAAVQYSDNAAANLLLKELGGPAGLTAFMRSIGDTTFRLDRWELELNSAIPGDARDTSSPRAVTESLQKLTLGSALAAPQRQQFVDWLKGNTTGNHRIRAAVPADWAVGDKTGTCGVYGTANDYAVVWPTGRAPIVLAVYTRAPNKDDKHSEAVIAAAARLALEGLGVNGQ

Target: KPC-2 (Klebsiella pneumoniae, UniProt Q9F663)
Assay: In vitro SBL inhibition assay (nitrocefin hydrolysis), IC50
Assay type: biochemical
Procedure: Nitrocefin (Sigma-Aldrich, St Louis, MO, USA), a chromogenic cephalosporin antibiotic (λ, 482 nm; εM, 15,000 M^−1.cm^−1), was used as a reporter substrate at 100 µM for KPC-2, OXA-23, and OXA-48, at 200 µM for OXA-24 and OXA-51, and at 50 µM for OXA-58. Enzymes were preincubated in the presence of varying concentrations of each compound (0.006 to 3000 nM, diluted twofold in dimethyl sulfoxide (DMSO) for KPC-2, OXA-23, and OXA-48 assays and 0.51 to 10,000 nM diluted threefold in DMSO for OXA-24, OXA-51, and OXA-58) for 10 min at 30°C. Nitrocefin was then added and its hydrolysis by the uninhibited enzyme fraction was followed at an absorbance wavelength of 482 nm for 10 min at 30°C using Envision UV fluorescence plate reader (Perkin Elmer, Waltham, MA, USA). Hydrolysis rate data were used to determine inhibitory activities, expressed in IC50 values [corresponding to the compound concentration (µM) required to inhibit 50% of enzymatic reaction].

With `O=C(NC1CCNCC1)[C@@H]1CC[C@@H]2CN1C(=O)N2OS(=O)(=O)O` (relative stereo) [Rel, relebactam] the IC50 was 17.1 nM.
